For 1 compound, Bmax results are on record in patent publication US5747336A, “Cloned human genes for muscarinic acetylcholine receptors and cells lines expressing same” (The United States of America as represented by the …, priority 1994, dated 1998).

The chains behind the UniProt entries cited, without tags or fusion partners. Where a name states a change or a piece, a line headed by the entry shows the natural chain unless it says otherwise.
UniProt P08482: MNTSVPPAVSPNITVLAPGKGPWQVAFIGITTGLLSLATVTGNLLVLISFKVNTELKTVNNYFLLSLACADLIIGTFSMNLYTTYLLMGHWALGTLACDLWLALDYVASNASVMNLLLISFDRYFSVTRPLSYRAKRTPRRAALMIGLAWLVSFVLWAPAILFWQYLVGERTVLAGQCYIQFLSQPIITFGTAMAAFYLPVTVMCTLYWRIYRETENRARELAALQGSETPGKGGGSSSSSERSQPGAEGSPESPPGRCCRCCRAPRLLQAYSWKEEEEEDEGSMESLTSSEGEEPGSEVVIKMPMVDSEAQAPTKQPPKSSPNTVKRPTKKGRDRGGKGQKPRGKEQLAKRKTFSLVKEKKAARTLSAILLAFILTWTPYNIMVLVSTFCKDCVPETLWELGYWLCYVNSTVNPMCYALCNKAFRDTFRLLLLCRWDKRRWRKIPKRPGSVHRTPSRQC

The target of this experiment is rat m1 receptor (Rm1) (Rattus norvegicus, UniProt P08482). As to conditions: Rm1 in CHO cell membranes; direct binding of 3H-NMS.

On to `C[N+]1(C)C2CC(OC(=O)C(CO)c3ccccc3)CC1C1OC12` (single isomer, unassigned) [^3 H-NMS, N-methylscopolamine], for which the Bmax is 180 ± 43 fmol/mg protein.
